# scFv variants of Ab-91 (heavy chain) against a SARS-CoV-2 spike peptide

Reference: Engelhart et al. 2022, doi:10.1038/s41597-022-01779-4. File: FLAb, binding data.

The target is the same throughout: PDVDLGDISGINAS, from the HR2 region of SARS-CoV-2 spike.

Ab-91 is the parent antibody, in scFv form: VL, then a 15-residue (Gly4Ser)3 linker, then VH. The light chain is unchanged in all variants.
VL: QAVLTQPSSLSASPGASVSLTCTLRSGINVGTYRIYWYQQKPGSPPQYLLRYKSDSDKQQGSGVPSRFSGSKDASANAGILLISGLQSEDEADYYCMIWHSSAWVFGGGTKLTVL
VH: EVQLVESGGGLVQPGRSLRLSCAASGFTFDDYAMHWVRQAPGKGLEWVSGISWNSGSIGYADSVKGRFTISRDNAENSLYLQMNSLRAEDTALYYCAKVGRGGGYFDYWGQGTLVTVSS

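The parent was found by panning a naive human phage display library on the peptide. The library (AAYL51) carries one to three amino acid substitutions per variant, with no insertions or deletions. In AlphaSeq, yeast of one mating type display the scFv and yeast of the other type display the target. After mating in shaken culture at 30 °C for 16 h, diploids were selected and their barcode pairs sequenced. Read counts were normalised to the haploid input and turned into Kd by a linear fit to BCL2-family pairs of known affinity, for each replicate. Each pool was mated in three replicate cultures.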

The parent's heavy chain CDRs are GFTFDDYAMH, GISWNSGSIGYADSVK, VGRGGGYFDY; each variant's own CDRs replace them letter for letter. Every variant below is changed at G102 of the VH (sequential numbering). Values are apparent Kd, the geometric mean of the replicates that gave a signal; lower means stronger binding. Where no diploid with the target was found in any replicate, the entry reads "nd": below detection, most likely a poor binder, though not proof of it. Background: pairings of library AAYL51 with three empty control strains gave a value in 21% of cases (median 34 µM, 5th percentile 1.8 µM). Values in that range, when seen in few replicates, are hard to tell from nonspecific mating.

The variant GFTFDDYAMH / GISWNNGSIGYADSVK / VGREGGYFDY showed nd (0 of 3 replicates). The variant GFTFDDYAYH / GISWNSGSIGAADSVK / VGRHGGYFDY gave 88 µM (2 of 3 replicates). For GFTFDDYAMH / GISWNSCSIGYADSVT / VGRRGGYFDY, the assay gave 2.2 µM (1 of 3 replicates). With GFTFDDYAMH / IISWNSGSIGYADSRK / VGREGGYFDY the result was nd (0 of 3 replicates). The variant GFTFDDYAMH / GISWNSGSIGYADSVK / VQRIGFYFDY showed nd (0 of 3 replicates). For GETFDDYAMH / GISWNSGSIGEADSVK / VGRTGGYFDY, the assay gave nd (0 of 3 replicates). The variant GFTFDDYAPH / GISWNSGSIGYADSVK / VGRKGGYFDY gave nd (0 of 3 replicates). For GFTFIDYAMH / GISWNSHSIGYADSVK / VGRNGGYFDY, the assay gave nd (0 of 3 replicates).

With GFTDDDYAMH / GISWNSGSIGYADSVK / VGRMGGYDDY the result was 7.7 µM (1 of 3 replicates). For YFTFDDYDMH / GISWNSGSIGYADSVK / VGRCGGYFDY, the assay gave 110 µM (3 of 3 replicates). The variant GFTFDDYAMH / GIPWNSGSSGYADSVK / VGRFGGYFDY showed nd (0 of 3 replicates). With GFTKDDYAMH / GISWNSGSIGYADSVA / VGRMGGYFDY the result was nd (0 of 3 replicates). With GFGFDDYAMH / GISWKSGSIGYADSVK / VGRQGGYFDY the result was 38 µM (2 of 3 replicates). The variant GFTFDDYAMH / GQSWNSGSIGYADSVK / VWRLGGYFDY gave nd (0 of 3 replicates). The variant GFTFDDYAMH / GISWNSGSIGYVDSVK / VGRTGGYIDY gave nd (0 of 3 replicates). For GFTFYDYAMH / GISWFSGSIGYADSVK / VGRFGGYFDY, the assay gave nd (0 of 3 replicates).

The variant GFTFDDYAMH / GISWNEGSIHYADSVK / VGRAGGYFDY showed nd (0 of 3 replicates). For GFTFDDYVMH / GISWNSGSIGYADSVK / VGRREGYFDY, the assay gave 89 µM (3 of 3 replicates). For GFTFDDYAMH / GISWNSGSAIYADSVK / VGRMGGYFDY, the assay gave nd (0 of 3 replicates). For GFTFDAYAMH / GISWNSGSIGYADSVK / VGRTKGYFDY, the assay gave 550 µM (3 of 3 replicates). With GFTFDDYAMH / GISWNSGGIGYADSVK / VGRWGGYCDY the result was 11 µM (1 of 3 replicates). For GFTFDDYAMH / GLSWNSGSIGYADSVK / GGRCGGYFDY, the assay gave 81 nM (3 of 3 replicates). The variant GFTFDDYAEH / GISWNSGSIGYADSVK / VGRYGVYFDY gave nd (0 of 3 replicates). The variant GMTFDDYAMH / GISWNSGSDGYADSVK / VGRMGGYFDY showed nd (0 of 3 replicates).

For GFTPDDVAMH / GISWNSGSIGYADSVK / VGRVGGYFDY, the assay gave 110 µM (2 of 3 replicates). For GFTFDDYAMH / GISWNSGSIGYADMVP / VGRYGGYFDY, the assay gave nd (0 of 3 replicates). For GFTFDDYAMH / GISWNSGSDGYADSVK / VYREGGYFDY, the assay gave 1.7 mM (1 of 3 replicates). For GFTFDDYAMH / GIQWNSGSIGYADSVK / VGRMGGYFDK, the assay gave nd (0 of 3 replicates). With GFSFCDYAMH / GISWNSGSIGYADSVK / VGRKGGYFDY the result was 18 µM (1 of 3 replicates). The variant GFTFDVYACH / GISWNSGSIGYADSVK / VGRIGGYFDY showed 37 µM (1 of 3 replicates). The variant GFTFDDYAMH / GISWNSGSIGYADSVK / VGRTGSYFDY gave 920 nM (3 of 3 replicates). The variant GFTFDDNAMH / GISWNSGSILYADSVK / VGRDGGYFDY showed nd (0 of 3 replicates).

The variant GFTFDDYAMH / GISWNSGSIGYADSVK / RGRAGGYFDY showed 3.5 µM (3 of 3 replicates). The variant GFTCDDYAMH / GISWNSGSIGYADSVK / VGRKGGYFDT gave 91 µM (1 of 3 replicates). For GFTFDDYAMH / YASWNSGSIGYADSVK / VGRTGGYFDY, the assay gave nd (0 of 3 replicates). For GFTFDDYAMV / GISKNSGSIGYADSVK / VGRRGGYFDY, the assay gave 25 µM (2 of 3 replicates). The variant GFTFIDYAMH / GISWNSGEIGYADSVK / VGRCGGYFDY showed 14 µM (2 of 3 replicates).

Excerpt, the final 4 entries:

CDR-H1,CDR-H2,CDR-H3,Kd (apparent),seen in
GFTCDDYAMH,GISWNSGSIGYADSVK,VGRKGGYFDT,91 µM,1/3
GFTFDDYAMH,YASWNSGSIGYADSVK,VGRTGGYFDY,nd,0/3
GFTFDDYAMV,GISKNSGSIGYADSVK,VGRRGGYFDY,25 µM,2/3
GFTFIDYAMH,GISWNSGEIGYADSVK,VGRCGGYFDY,14 µM,2/3

Parent in this assay: reference entry 72 nM, copy in this library 7.5 nM.